{"source": "patent US12205808B2", "about": "(priority 2019, dated 2025)", "origin": "cited, not measured here"}
{"substance": "AM-1220", "values": [{"measurement": "Concentration in postmortem plasma samples", "result": 0.14, "unit": "µg/mL"}]}
